# Source: PubChem BioAssay AID995 (National Center for Advancing Translational Sciences (NCATS), 2007)
# The entries are a selection whose mix differs from that of the whole data set. Records with an inconclusive call do not appear. The source made the active and inactive calls. The call rests on the fitted dose curve; in most records, active means well fitted inhibition curve with a large enough effect; inconclusive means small, poorly fitted or top-dose-only effect; inactive means no such curve, though single readings can be large or run the other way.
# Assay: qHTS Assay for Inhibitors of the ERK Signaling Pathway using a Homogeneous Screening Assay; further: nearly all actives have a fitted effect of over 55% in size
# Conditions: HEK293-V1b, vasopressin-stimulated pERK AlphaScreen; at 57.5 µM (top of the series) unless noted
# On the % scale 0 is the no-effect control and ±100 the full control effect.
row,SMILES,"activity, negative = inhibition"
1,N1=C(c2nnc(-c3nn[nH]n3)nn2)NNN1,inactive: -11% [at 11.5 µM]
2,CP(=S)(Nn1cnnc1)Oc1ccccc1 (configuration not stated),inactive: -16.5%
3,CP(=O)(NC(=O)Nc1ccccc1)Oc1ccccc1 (configuration not stated),inactive: -10.2%
4,CCOP(C)(=S)SCC(=O)NC(C)C(=O)O (configuration not stated),inactive: 1.62%
5,O=[N+]([O-])[O-].[NH4+],inactive: 0.544%
6,COc1ccccc1OP(C)(=O)Nc1ccc(C)cc1 (configuration not stated),inactive: 1.17%
7,Cc1ccc(NP(C)(=O)Oc2ccccc2)c(C)c1 (configuration not stated),inactive: 6.79%
8,O=[N+]([O-])c1cccc([N+](=O)[O-])c1,inactive: 5.94%
9,Cc1ccc([N+](=O)[O-])cc1[N+](=O)[O-],inactive: -0.442%
10,Cc1ccc(C)c(NP(C)(=O)Oc2ccccc2)c1 (configuration not stated),inactive: 6.59%
11,Cc1nc2ccc3ccccc3c2s1.O=[N+]([O-])c1cc([N+](=O)[O-])c(O)c([N+](=O)[O-])c1,inactive: -15.6%
12,CN(C)CCOC(=O)C(O)(c1ccccc1)C1CCCCC1 (configuration not stated),inactive: 3.11%
13,Cc1c([N+](=O)[O-])cccc1[N+](=O)[O-],inactive: 13.8%
14,Cc1ccc([N+](=O)[O-])c([N+](=O)[O-])c1,inactive: 8.54%
15,CCN(CCO)CCO.Oc1c(Cl)c(Cl)c(Cl)c(Cl)c1Cl,inactive: 37.8% [at 11.5 µM]
16,CCOP(=O)(CC)OCC,inactive: 4.36%

row,SMILES,"activity, negative = inhibition"
1,CCOP(C)(=S)SCC(=O)NC(C)(CC)C(=O)O (configuration not stated),inactive: -6.78%
2,CP(=O)(Nc1ccc2c(c1)OCCO2)Oc1ccccc1 (configuration not stated),inactive: -15.5%
3,NNC(NN)NN.n1nc(-c2nn[nH]n2)n[nH]1,inactive: -0.786% [at 11.5 µM]
4,Cc1ccccc1NP(C)(=O)Nc1ccccc1C,inactive: -13.2%
5,CCN(CCCl)Cc1ccccc1C,inactive: 20.9%
6,[NH4+].[O-][Cl+3]([O-])([O-])[O-],inactive: -0.954%
7,CP(=O)(Nc1ccccc1F)Oc1ccccc1 (configuration not stated),inactive: 15.7%
8,CCC(C)(OO)OOC(C)(CC)OO (configuration not stated),inactive: -3.82%
9,Cc1cccc([N+](=O)[O-])c1[N+](=O)[O-],inactive: -1.64%
10,COc1ccccc1OP(C)(=O)Nc1ccc(C)c(C)c1 (configuration not stated),inactive: -7.47%
11,Cc1nc2ccc3ccccc3c2o1.O=[N+]([O-])c1cc([N+](=O)[O-])c(O)c([N+](=O)[O-])c1,inactive: -3.47%
12,CP(=O)(Nc1ccccn1)Oc1ccccc1 (configuration not stated),inactive: 5.97%
13,CP(=O)(Oc1ccccc1)N1CCOC1=O (configuration not stated),inactive: -15.3%
14,COc1ccccc1OP(C)(=O)Nc1c(C)n(C)n(-c2ccccc2)c1=O (configuration not stated),inactive: 41.5%
15,OCCSCCO,inactive: 22%
16,C/C1=C2N=C(/C=C3N=C(/C(C)=C4\[N-][C@@](C)([C@H]5N=C1[C@@](C)(CCC(=O)NC[C@H](C)OP(=O)([O-])O[C@@H]1[C@H](O)[C@H](n6cnc7cc(C)c(C)cc76)O[C@@H]1CO)[C@@H]5CC(N)=O)[C@](C)(CC(N)=O)[C@H]4CCC(N)=O)[C@@](C)(CC(N)=O)[C@@H]\3CCC(N)=O)C(C)(C)[C@@H]/2CCC(N)=O.[C-]#N.[Co+3],inactive: -8.87% [at 25.7 µM]
